Reference: ChEMBL document CHEMBL1833804, “Discovery of N-(3-(1-methyl-1,2,3,6-tetrahydropyridin-4-yl)-1H-indol-6-yl) thiophene-2-carboximidamide as a selective inhibitor of human neuronal nitric oxide synthase (nNOS) for the treatment of pain” (J Med Chem, 2011)

By UniProt entry, the sequences of proteins in these tests, tags left out.
UniProt P29475, whole entry, looked up: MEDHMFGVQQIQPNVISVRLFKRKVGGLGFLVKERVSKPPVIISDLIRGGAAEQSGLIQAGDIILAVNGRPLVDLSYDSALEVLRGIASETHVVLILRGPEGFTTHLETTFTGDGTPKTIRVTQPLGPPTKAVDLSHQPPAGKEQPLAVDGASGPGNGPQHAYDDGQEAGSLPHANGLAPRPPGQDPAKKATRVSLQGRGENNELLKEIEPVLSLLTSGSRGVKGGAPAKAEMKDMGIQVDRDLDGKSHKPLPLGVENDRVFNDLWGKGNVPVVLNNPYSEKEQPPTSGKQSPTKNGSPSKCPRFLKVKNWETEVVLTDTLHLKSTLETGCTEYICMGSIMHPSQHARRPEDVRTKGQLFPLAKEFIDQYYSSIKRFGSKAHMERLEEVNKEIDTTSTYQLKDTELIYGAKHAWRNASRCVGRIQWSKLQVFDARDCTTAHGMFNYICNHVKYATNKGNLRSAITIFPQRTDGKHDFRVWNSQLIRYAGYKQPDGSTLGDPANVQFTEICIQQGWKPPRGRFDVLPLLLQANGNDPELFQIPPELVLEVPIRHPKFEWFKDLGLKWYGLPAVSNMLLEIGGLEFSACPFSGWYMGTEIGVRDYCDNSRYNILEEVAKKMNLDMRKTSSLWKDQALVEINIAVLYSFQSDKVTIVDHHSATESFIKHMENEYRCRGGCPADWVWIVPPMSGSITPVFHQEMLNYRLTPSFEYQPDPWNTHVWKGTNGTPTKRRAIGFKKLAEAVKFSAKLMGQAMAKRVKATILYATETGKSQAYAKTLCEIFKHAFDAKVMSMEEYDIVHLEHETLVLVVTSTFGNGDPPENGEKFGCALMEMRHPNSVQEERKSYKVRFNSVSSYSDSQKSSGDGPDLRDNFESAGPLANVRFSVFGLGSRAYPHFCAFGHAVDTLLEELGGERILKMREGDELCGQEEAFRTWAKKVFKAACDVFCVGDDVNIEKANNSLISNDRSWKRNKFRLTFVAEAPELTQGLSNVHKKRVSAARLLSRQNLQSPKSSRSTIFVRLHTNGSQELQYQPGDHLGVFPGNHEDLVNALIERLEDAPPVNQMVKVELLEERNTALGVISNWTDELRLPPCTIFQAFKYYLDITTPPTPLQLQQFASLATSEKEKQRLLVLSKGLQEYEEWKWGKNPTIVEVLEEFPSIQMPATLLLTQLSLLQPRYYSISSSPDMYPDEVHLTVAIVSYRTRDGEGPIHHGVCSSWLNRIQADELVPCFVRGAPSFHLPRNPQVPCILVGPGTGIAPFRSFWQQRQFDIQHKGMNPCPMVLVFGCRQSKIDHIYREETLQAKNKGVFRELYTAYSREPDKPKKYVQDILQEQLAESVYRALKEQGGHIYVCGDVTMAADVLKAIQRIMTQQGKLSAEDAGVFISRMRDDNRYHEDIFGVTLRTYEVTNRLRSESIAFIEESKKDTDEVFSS
UniProt P35228, whole entry, looked up: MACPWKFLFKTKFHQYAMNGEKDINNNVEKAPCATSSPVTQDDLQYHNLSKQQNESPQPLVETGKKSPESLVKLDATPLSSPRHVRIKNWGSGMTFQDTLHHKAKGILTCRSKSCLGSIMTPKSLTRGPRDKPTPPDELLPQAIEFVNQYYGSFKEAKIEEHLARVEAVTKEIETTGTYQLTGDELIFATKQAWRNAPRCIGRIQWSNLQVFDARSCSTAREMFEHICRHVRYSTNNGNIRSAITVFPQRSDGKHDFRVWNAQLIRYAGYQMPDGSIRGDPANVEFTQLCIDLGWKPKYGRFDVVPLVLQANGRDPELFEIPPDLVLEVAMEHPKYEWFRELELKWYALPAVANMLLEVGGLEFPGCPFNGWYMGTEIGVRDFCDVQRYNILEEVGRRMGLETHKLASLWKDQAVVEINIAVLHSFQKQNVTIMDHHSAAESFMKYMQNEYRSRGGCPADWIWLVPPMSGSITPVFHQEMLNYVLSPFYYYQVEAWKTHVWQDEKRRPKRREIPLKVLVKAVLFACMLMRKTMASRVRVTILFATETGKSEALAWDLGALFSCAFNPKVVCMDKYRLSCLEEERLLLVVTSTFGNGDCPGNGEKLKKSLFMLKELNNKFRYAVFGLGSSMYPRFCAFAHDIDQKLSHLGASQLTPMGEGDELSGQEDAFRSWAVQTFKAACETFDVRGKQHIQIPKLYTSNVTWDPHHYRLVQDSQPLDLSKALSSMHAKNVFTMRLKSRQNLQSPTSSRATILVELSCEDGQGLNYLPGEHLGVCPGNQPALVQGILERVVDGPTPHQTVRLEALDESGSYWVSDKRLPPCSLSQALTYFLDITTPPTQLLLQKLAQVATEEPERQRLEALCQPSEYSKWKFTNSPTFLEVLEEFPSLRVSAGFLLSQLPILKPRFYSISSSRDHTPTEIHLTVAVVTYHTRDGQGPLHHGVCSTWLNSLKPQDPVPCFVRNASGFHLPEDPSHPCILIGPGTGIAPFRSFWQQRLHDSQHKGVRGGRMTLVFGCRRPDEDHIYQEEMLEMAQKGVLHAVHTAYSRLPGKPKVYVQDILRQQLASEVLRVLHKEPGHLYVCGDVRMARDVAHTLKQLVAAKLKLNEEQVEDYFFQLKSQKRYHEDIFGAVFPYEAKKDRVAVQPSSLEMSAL

Assays:
Homo sapiens = species on record: Homo sapiens; assay: Selectivity ratio of IC50 for human recombinant eNOS to IC50 for human recombinant nNOS
[1] = molecular target: Nitric oxide sythases; iNOS & nNOS (Homo sapiens) (UniProt P29475+P35228); assay: Selectivity ratio of IC50 for human recombinant iNOS to IC50 for human recombinant nNOS
Method in brief: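 Recombinant human nNOS and iNOS were expressed in baculovirus-infected Sf9 cells, and the assay measured [³H]-L-arginine to [³H]-L-citrulline conversion. nNOS buffer: 40 mM HEPES pH 7.4 with CaCl₂, MgCl₂, BSA, 1 mM NADPH and 1.2 μM CaM. iNOS buffer: 100 mM HEPES pH 7.4 with 120 μM NADPH and 100 nM CaM. Compound was preincubated 15 min at RT, then reacted 45 min at 37 °C. Citrulline was separated on DOWEX and counted by scintillation, in duplicate. The ratio is IC50 iNOS/IC50 nNOS.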

Structure (SMILES): CNC(=N)NCCC[C@H](N)C(=O)O.Cl.Cl
- Ratio IC50 (Homo sapiens): 0.7
- Ratio IC50 [1]: 2
